Measured values from PMC7641332 (Nucleic Acids Research, 2020).

Target: GST-BRCA2-FLAG-His10 (GST-tagged full-length BRCA2) (human, UniProt P51587 1-3418)
Experiment: pull-down

B1: 2× MBP-BRCA2NT-FLAG-His10 (domain or fragment)
chain: MPIGSKERPTFFEIFKTRCNKADLGPISLNWFEELSSEAPPYNSEPAEESEHKNNNYEPNLFKTPQRKPSYNQLASTPIIFKEQGLTLPLYQSPVKELDKFKLDLGRNVPNSRHKSLRTVKTKMDQADDVSCPLLNSCLSESPVVLQCTHVTPQRDKSVVCGSLFHTPKFVKGRQTPKHISESLGAEVDPDMSWSSSLATPPTLSSTVLIVRNEEASETVFPHDTTANVKSYFSNHDESLKKNDRFIASVTDSENTNQREAASHGFGKTSGNSFKVNSCKDHIGKSMPNVLEDEVYETVVDTSEEDSFSLCFSKCRTKNLQKVRTSKTRKKIFHEANADECEKSKNQVKEKYSFVSEVEPNDTDPLDSNVANQKPFESGSDKISKEVVPSLACEWSQLTLSGLNGAQMEKIPLLHISSCDQNISEKDLLDTENKRKKDFLTSENSLPRISSLPKSEKPLNEETVVNKRDEEQHLESHTDCILAVKQAISGTSPVASSFQGIKKSIFRIRESPKETFNASFSGHMTDPNFKKETEASESGLEIHTVCSQKEDSLCPNLIDNGSWPATTTQNSVALKNAGLISTLKKKTNKFIYAIHDETSYKGKKIPKDQKSELINCSAQFEANAFEAPLTFANADSGLLHSSVKRSCSQNDSEEPTLSLTSSFGTILRKCSRNETCSNNTVISQDLDYKEAKCNKEKLQLFITPEADSLSCLQE
binding result: binds
